What was measured:
[1] = target: 72 kDa type IV collagenase (Homo sapiens, UniProt P08253)
[2] = target: T1, Disintegrin and metalloproteinase domain-containing protein 33 (Homo sapiens, UniProt Q9BZ11); assay: Inhibition of ADAM33
T1 sequence (Q9BZ11 whole entry): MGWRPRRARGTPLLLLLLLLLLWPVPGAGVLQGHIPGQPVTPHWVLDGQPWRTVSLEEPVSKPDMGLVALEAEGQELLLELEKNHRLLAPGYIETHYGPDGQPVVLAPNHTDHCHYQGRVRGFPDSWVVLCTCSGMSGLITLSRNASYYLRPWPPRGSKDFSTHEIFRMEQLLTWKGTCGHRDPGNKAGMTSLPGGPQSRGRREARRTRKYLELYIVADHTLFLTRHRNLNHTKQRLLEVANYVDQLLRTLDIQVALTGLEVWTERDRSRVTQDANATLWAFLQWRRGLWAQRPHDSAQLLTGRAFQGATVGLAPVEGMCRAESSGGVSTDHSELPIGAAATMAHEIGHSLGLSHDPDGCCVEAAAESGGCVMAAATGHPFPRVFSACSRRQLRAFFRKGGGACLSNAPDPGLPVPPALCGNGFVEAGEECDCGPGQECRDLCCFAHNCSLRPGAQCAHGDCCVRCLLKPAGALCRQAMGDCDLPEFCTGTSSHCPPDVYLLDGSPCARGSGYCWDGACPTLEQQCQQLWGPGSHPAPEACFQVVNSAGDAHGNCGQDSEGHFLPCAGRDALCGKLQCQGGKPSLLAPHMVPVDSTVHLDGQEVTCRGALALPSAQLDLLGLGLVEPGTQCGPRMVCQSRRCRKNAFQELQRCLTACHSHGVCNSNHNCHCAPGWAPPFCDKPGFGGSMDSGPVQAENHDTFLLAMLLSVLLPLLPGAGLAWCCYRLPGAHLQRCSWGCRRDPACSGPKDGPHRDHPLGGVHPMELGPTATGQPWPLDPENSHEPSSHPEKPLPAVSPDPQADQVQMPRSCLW

By UniProt entry, the sequences of proteins in these tests, tags left out. Where a name states a change or a piece, a line headed by the entry shows the natural chain unless it says otherwise.
UniProt P08253: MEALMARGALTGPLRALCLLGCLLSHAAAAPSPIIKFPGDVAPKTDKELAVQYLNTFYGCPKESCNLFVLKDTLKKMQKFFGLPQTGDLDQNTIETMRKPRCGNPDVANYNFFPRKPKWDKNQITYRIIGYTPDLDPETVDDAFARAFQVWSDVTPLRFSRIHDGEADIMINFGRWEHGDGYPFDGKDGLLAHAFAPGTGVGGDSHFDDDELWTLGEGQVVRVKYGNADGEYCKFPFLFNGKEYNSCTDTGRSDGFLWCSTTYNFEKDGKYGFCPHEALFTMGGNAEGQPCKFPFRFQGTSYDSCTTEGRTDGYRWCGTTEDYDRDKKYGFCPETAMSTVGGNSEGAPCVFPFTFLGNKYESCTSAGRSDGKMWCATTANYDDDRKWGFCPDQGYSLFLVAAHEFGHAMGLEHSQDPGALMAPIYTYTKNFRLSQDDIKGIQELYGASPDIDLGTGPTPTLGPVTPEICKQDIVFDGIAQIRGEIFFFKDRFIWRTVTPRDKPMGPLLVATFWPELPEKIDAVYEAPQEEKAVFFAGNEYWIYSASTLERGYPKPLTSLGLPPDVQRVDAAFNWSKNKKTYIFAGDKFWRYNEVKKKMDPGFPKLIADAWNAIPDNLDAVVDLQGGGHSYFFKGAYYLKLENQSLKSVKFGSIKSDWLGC

[3] = target: T2, Matrilysin (Homo sapiens, UniProt P09237)
T2 sequence (P09237 whole entry): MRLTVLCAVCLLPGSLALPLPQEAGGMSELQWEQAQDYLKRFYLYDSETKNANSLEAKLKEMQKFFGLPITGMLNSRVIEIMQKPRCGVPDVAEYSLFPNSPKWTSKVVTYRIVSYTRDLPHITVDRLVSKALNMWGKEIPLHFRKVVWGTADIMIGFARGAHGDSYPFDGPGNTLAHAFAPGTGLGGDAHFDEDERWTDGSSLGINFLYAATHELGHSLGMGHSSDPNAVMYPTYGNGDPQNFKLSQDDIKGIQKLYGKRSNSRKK

CS(=O)(=O)NCc1noc([C@H](CCCC2CCCCC2)CC(=O)NO)n1
Ki [1]: > 100 µM

CN1CC2(CC2)C[C@H](C(=O)NO)[C@H]1C(=O)N1CCN(c2ccc(C(F)(F)F)cn2)CC1
IC50 [1]: > 5 µM | IC50 [2]: 4.12 µM | IC50 [3]: > 5 µM
